These results are taken from ChEMBL document CHEMBL5214927, “Recent advance on carbamate-based cholinesterase inhibitors as potential multifunctional agents against Alzheimer's disease” (Eur J Med Chem, 2022).

Protein sequences, listed by entry. Tags and fused reporters are not part of them. Lines headed by an entry give the natural chain unless they say otherwise; changes in a name come on top.
UniProt P06276, whole entry, looked up: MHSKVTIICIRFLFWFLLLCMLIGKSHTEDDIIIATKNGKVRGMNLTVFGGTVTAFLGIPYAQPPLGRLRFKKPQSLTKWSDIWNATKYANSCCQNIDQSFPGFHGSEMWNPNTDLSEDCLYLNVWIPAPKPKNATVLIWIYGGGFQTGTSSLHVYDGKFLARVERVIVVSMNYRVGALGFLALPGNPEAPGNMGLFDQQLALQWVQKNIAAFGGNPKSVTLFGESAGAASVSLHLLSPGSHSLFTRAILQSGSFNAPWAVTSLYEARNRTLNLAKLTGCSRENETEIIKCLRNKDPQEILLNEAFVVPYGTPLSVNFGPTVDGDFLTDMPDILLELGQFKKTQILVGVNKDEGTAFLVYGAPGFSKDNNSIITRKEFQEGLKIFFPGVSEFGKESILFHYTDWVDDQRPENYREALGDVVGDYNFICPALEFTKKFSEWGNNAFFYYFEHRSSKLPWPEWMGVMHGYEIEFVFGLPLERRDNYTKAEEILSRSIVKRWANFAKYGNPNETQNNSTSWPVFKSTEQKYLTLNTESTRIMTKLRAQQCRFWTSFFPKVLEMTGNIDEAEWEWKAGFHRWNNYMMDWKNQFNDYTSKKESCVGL
UniProt P22303: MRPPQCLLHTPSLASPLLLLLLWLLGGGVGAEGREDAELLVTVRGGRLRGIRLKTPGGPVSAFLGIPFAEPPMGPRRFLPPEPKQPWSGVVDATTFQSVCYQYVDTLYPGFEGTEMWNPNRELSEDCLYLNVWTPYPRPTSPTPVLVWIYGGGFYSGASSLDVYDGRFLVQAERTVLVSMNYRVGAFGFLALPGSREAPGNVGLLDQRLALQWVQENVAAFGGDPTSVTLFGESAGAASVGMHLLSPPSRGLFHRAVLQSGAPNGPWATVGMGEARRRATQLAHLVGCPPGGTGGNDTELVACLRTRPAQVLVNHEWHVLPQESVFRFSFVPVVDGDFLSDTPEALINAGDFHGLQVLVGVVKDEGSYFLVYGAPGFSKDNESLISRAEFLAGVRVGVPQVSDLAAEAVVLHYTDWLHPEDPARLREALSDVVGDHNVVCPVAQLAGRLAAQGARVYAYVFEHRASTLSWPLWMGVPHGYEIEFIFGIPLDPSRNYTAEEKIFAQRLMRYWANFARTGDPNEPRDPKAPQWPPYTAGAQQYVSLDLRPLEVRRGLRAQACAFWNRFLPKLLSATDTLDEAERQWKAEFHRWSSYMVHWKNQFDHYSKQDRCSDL

The assay addresses Cholinesterases; ACHE & BCHE (Homo sapiens) (UniProt P06276+P22303). Briefly: Selectivity index, ratio of IC50 for AChE (unknown origin) to BChE (unknown origin). In kind it is protein assay.

In the case of `Cc1ccccc1NC(=O)Oc1ccc2c(c1)[C@]1(C)CCO[C@@H]1O2`, the Ratio IC50 was more than 1300.
